The values that follow come from ChEMBL document CHEMBL6120956, “Discovery of a Potent, Orally Active, and Long-Lasting P2X7 Receptor Antagonist as a Preclinical Candidate for Delaying the Progression of Chronic Kidney Disease” (J Med Chem, 2024).

Molecules are shown by their SMILES.

Test [1] concerns the target T1, P2X purinoceptor 7 (Mus musculus) (UniProt Q9Z1M0).
T1 sequence (whole entry): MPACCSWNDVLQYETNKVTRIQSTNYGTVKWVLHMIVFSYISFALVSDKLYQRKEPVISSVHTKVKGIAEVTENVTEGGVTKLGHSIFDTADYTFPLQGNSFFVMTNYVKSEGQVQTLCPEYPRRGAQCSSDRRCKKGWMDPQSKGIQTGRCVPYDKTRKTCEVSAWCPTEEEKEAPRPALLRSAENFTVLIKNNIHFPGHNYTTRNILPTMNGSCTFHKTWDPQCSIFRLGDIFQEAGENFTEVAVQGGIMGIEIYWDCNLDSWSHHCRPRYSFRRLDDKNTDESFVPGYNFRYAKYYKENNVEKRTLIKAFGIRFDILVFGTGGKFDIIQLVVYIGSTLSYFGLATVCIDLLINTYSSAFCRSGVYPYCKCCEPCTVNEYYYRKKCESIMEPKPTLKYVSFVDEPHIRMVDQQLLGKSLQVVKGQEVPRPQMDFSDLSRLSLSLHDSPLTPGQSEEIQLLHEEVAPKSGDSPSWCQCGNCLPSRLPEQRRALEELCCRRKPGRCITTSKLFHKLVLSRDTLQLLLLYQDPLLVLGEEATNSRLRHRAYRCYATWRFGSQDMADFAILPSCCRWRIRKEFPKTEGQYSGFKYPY
The test can be described thus: Antagonist activity against mouse P2X7 receptor expressed in ATP-stimulated HEK293 cells assessed as influx of PI at 200 nM by fluorescence dye uptake assay relative to control. Type of test: cell-based. More on the design: scale not given: the % may be the effect or the level left.

For test [2], the target named is T1, P2X purinoceptor 7 (Mus musculus). In words: Antagonist activity against mouse P2X7 receptor expressed in ATP-stimulated HEK293 cells assessed as influx of PI at 1 uM by fluorescence dye uptake assay relative to control. More on the design: scale not given: the % may be the effect or the level left. Type of test: cell-based.

As to `CS(=O)(=O)c1ccc(-c2nc(C(=O)NCc3cn(-c4cc(N5CCC(F)(F)CC5)ccn4)nn3)cs2)cc1`, the Activity in test [1] turned out to be 65.2%; in test [2], 95.9%.

Turning to `CS(=O)(=O)c1ccc(-c2nc(C(=O)NCc3cn(-c4cc(-c5cccc(C(F)(F)F)c5)ccn4)nn3)cs2)cc1`, the Activity was 49.9% in test [1] and 64% in test [2].

Take `CS(=O)(=O)c1ccc(-c2ncc(C(=O)NCc3cn(-c4cc(N5CCC(F)(F)CC5)ccn4)nn3)s2)cc1`: the Activity in test [1] worked out at 73%; in test [2] it was 84.8%.

Consider `CS(=O)(=O)c1ccc(-c2nc(C(=O)NCc3cn(-c4cc(C(F)(F)F)ccn4)nn3)cs2)cc1`, for which the Activity is 50.3% in test [1] and 75.6% in test [2].

Turning to `CS(=O)(=O)c1ccc(-c2nc(C(=O)NCc3cn(-c4cc(NC5CC(F)(F)C5)ccn4)nn3)cs2)cc1`, the Activity came to 40.3% in test [1] and 73.7% in test [2].

Take `CS(=O)(=O)c1ccc(-c2ncc(C(=O)NCc3cn(-c4cc(C(F)(F)F)ccn4)nn3)s2)cc1`: the Activity was determined as 59.5% in test [1] and 82% in test [2].

As to `CS(=O)(=O)c1ccc(-c2ncc(C(=O)NCc3cn(-c4cc(NC5CC(F)(F)C5)ccn4)nn3)s2)cc1`, the figures for the Activity in test [1] and in test [2] were 48% and 75.3%, respectively.
